Biological target: FGFR-3 K650E mutant on OPM-2 cells (human) (UniProt P22607)
Experiment: cell-based or functional assay

phosphor-FGFR-3 western blot signal, OPM-2 cells, 0.2 nM FGF-9: 3 fold
phosphor-MAPK western blot signal, OPM-2 cells, 0.2 nM FGF-9: > 2 fold
Substance: FGF-9 (from UniProt P31371 1-208) (ligand)

From patent US20100098696A1
